{"sequences": {"note": "Sequences of proteins named here, by UniProt entry; tags and fusion partners are left off.", "UniProt P08684, whole entry": "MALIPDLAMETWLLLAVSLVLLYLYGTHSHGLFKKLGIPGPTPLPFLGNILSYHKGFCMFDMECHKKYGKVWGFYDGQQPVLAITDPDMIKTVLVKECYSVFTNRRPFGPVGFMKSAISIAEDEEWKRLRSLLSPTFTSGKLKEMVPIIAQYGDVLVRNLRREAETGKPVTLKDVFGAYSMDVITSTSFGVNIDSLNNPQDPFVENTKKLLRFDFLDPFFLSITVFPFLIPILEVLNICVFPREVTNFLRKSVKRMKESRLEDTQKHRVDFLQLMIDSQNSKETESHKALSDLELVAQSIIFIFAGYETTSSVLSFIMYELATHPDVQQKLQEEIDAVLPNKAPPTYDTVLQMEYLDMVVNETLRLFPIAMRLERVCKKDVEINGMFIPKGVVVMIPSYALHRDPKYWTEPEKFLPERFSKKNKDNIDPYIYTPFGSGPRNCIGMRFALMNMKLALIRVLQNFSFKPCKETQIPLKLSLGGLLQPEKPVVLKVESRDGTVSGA"}, "source": "paper PMC7856178", "about": "(Archives of biochemistry and biophysics, 2020)", "molecular_target": "CYP3A4 (Homo sapiens, UniProt P08684)", "experiment": "Rate of O-demethylation of ivermectin by pooled HLM", "format": "in vitro ADME", "details": "100 μM substrate; for Turnover rate (per metabolizing P450 enzyme): per CYP3A4", "data": [{"substance": "Ivermectin", "values": [{"measurement": "Turnover rate (per CPR)", "setting": "HLM-A", "value": "8.0 ± 1.8", "unit": "min⁻¹"}, {"measurement": "Turnover rate (per metabolizing P450 enzyme)", "setting": "HLM-A", "value": "4.9 ± 1.1", "unit": "min⁻¹"}, {"measurement": "Turnover rate (per CPR)", "setting": "HLM-N1", "value": "6.0 ± 1.2", "unit": "min⁻¹"}, {"measurement": "Turnover rate (per metabolizing P450 enzyme)", "setting": "HLM-N1", "value": "4.7 ± 0.9", "unit": "min⁻¹"}, {"measurement": "Turnover rate (per CPR)", "setting": "HLM-N2", "value": "6.3 ± 2.0", "unit": "min⁻¹"}, {"measurement": "Turnover rate (per metabolizing P450 enzyme)", "setting": "HLM-N2", "value": "2.8 ± 0.9", "unit": "min⁻¹"}, {"measurement": "Turnover rate (per CPR)", "setting": "HLM-N3", "value": "6.5 ± 2.3", "unit": "min⁻¹"}, {"measurement": "Turnover rate (per metabolizing P450 enzyme)", "setting": "HLM-N3", "value": "2.4 ± 0.9", "unit": "min⁻¹"}]}]}
